Measured values published in paper PMC5468338, “Novel Class IIa-Selective Histone Deacetylase Inhibitors Discovered Using an in Silico Virtual Screening Approach” (Scientific Reports, 2017).
Like-named read-outs stand apart in the source and are kept apart here.

By UniProt entry, the sequences of proteins in these tests, tags left out.
UniProt Q8WUI4, whole entry: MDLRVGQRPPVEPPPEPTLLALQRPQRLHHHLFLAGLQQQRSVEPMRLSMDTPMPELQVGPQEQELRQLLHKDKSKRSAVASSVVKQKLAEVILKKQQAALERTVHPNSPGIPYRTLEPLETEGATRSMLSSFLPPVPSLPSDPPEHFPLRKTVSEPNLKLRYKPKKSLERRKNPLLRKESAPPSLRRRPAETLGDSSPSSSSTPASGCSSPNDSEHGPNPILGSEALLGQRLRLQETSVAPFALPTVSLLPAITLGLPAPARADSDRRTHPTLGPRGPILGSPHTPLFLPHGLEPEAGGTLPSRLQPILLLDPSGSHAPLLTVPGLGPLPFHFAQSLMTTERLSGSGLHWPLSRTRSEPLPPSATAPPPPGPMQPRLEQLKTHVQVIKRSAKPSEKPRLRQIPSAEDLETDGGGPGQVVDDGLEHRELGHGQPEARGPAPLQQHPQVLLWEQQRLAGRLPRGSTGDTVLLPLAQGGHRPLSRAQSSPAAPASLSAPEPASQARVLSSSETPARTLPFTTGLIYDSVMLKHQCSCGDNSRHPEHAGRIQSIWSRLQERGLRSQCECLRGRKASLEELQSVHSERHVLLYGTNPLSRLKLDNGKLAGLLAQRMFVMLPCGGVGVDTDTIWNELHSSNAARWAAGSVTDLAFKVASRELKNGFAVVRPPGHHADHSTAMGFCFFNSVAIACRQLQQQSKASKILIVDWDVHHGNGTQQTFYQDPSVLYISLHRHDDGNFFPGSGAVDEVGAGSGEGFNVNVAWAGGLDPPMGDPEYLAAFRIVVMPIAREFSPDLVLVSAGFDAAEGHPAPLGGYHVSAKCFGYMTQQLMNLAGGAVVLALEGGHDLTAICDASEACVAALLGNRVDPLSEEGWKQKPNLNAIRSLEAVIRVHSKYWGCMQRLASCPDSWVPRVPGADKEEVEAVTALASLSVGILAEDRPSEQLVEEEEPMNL
UniProt Q9UQL6, whole entry: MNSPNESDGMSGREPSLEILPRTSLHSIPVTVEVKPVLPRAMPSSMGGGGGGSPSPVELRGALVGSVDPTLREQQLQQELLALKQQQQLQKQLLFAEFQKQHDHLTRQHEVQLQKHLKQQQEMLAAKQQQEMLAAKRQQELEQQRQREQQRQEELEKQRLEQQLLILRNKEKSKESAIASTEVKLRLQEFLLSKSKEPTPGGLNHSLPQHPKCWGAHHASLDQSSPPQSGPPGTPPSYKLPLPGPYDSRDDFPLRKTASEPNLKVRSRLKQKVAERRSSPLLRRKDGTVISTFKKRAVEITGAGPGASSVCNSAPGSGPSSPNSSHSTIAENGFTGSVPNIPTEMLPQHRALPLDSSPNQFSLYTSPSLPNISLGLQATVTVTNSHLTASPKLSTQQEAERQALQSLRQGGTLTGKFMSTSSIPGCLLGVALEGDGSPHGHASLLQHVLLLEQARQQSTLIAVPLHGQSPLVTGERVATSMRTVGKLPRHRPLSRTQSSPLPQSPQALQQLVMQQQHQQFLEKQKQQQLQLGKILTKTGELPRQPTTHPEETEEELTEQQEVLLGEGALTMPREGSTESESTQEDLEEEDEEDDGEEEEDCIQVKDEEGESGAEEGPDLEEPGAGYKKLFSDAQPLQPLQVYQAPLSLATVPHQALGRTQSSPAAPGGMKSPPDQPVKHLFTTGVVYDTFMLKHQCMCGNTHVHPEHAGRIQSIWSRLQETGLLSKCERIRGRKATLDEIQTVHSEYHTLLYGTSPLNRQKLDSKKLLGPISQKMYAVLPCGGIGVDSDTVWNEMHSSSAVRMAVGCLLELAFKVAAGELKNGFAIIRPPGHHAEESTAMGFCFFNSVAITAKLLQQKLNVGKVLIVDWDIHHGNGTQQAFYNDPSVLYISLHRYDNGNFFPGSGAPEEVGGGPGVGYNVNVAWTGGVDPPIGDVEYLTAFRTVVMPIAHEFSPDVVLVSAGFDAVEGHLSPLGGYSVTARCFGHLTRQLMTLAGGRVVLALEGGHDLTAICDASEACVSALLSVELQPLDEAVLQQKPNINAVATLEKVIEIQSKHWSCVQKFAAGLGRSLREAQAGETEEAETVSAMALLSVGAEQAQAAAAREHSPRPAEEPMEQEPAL
UniProt P56524, whole entry: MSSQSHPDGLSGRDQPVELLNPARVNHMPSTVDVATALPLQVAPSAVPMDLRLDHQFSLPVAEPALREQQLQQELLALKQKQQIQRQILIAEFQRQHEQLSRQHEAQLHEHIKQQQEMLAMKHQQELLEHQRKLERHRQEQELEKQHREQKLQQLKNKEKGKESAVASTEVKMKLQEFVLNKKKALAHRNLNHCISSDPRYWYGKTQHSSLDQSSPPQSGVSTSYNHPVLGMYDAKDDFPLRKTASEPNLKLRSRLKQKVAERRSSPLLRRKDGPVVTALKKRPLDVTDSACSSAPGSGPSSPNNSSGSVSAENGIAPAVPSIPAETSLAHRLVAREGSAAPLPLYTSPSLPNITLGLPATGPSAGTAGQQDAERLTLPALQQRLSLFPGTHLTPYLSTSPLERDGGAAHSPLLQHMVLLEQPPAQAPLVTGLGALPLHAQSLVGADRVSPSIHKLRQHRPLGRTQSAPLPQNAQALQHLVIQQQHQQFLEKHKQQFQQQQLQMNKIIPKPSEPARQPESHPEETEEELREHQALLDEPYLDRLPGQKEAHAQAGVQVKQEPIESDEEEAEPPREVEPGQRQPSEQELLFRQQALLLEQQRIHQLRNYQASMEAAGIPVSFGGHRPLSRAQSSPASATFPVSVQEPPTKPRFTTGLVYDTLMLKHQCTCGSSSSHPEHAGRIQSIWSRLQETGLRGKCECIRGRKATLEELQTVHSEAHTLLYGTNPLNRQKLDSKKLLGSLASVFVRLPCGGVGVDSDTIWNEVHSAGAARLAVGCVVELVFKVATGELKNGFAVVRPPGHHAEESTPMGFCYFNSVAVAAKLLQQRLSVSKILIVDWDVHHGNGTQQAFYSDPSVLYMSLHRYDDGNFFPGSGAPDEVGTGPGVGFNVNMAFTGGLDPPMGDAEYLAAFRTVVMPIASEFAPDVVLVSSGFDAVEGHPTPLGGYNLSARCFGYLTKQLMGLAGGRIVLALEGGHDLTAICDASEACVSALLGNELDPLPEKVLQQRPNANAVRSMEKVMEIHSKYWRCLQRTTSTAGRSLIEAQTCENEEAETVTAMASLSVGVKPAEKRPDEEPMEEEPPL
UniProt Q9UKV0, whole entry: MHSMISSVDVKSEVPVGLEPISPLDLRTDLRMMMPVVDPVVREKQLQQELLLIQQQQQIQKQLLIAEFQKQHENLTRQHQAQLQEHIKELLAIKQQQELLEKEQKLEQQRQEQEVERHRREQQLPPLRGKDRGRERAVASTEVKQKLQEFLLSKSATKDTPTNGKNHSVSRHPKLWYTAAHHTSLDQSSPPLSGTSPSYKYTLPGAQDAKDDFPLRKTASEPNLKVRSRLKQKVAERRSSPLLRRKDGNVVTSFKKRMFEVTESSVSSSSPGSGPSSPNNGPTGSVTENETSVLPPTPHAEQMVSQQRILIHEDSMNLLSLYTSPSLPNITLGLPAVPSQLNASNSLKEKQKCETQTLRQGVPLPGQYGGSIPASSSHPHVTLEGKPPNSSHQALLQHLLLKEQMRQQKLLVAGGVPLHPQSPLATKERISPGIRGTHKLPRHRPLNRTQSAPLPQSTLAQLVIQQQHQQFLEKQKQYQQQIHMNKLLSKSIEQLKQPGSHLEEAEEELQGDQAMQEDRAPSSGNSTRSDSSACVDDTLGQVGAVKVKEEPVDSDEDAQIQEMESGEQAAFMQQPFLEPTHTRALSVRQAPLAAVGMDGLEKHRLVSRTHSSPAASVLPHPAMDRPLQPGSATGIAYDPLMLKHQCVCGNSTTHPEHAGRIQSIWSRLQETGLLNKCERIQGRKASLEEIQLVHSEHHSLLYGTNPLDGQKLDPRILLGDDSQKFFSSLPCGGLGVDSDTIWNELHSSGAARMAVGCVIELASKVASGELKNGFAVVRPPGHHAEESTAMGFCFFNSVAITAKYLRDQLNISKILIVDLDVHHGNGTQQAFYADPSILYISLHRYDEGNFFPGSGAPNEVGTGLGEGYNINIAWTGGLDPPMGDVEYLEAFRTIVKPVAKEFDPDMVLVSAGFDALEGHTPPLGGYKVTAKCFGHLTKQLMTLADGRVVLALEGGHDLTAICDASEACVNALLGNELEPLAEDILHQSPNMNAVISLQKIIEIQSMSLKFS
UniProt Q9UBN7, whole entry: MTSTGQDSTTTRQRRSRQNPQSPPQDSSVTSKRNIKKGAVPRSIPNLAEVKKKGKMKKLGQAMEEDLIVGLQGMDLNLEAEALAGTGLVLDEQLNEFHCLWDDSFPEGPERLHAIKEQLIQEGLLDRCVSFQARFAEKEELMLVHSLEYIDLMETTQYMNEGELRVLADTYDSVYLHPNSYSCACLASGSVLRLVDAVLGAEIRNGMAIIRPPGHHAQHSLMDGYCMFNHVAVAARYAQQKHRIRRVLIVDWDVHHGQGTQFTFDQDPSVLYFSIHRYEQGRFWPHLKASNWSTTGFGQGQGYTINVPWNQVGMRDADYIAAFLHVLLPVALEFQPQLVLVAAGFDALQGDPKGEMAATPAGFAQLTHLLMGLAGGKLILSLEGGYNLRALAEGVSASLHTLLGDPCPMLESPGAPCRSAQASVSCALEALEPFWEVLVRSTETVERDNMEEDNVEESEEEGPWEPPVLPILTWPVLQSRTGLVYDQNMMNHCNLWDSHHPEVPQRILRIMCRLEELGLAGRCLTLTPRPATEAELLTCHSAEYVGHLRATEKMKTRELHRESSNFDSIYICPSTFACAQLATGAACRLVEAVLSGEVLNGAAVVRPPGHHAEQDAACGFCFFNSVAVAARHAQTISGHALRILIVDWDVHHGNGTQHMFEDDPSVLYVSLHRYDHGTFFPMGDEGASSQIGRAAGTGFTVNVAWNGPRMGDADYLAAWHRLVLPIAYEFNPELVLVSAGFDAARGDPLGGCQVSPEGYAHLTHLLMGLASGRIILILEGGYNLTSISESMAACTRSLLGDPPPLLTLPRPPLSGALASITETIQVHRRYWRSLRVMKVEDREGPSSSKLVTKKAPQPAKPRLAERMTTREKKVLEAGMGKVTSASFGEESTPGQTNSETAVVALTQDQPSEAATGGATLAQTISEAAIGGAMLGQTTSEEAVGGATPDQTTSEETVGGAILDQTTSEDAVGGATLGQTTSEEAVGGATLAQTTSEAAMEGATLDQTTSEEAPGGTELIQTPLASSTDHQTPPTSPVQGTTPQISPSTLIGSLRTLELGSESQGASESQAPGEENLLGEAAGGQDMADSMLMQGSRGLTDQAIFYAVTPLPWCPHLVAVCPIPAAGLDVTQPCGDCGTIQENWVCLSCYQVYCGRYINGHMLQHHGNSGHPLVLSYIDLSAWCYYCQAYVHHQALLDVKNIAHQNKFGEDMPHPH

Columns and labels:
[1] = molecular target: HDAC7 (Homo sapiens, UniProt Q8WUI4); assay: HDAC fluorometric activity assay, HDAC7; conditions: read-out: IC50 HDAC7 (Class IIa); Table 2; mean of three independent experiments
[2] = molecular target: HDAC5 (Homo sapiens, UniProt Q9UQL6); assay: HDAC fluorometric activity assay, HDAC5; conditions: read-out: IC50 HDAC5 (Class IIa); Table 2; mean of three independent experiments
[3] = molecular target: HDAC4 (Homo sapiens, UniProt P56524); assay: HDAC fluorometric activity assay, HDAC4; conditions: for HDAC4 inhibitory activity in initial screen compared to SAHA: tested at 40 μM, SAHA as reference
[4] = molecular target: HDAC9 (Homo sapiens, UniProt Q9UKV0); assay: HDAC fluorometric activity assay, HDAC9; conditions: read-out: IC50 HDAC9 (Class IIa); Table 2; mean of three independent experiments
[5] = molecular target: HDAC6 (Homo sapiens, UniProt Q9UBN7); assay: HDAC fluorometric activity assay, HDAC6; conditions: read-out: IC50 HDAC6 (Class IIb); Table 2; mean of three independent experiments
[6] = read-out: IC50 HDAC4 (Class IIa), Table 2, mean of three independent experiments

IC50 [1] [µM] | IC50 [2] [µM] | HDAC4 inhibitory activity compared to SAHA (in words) ([3]; IC50 determination) | IC50 [3, 6] [µM] | IC50 [4] [µM] | IC50 [5] [µM] | IC50 ([3]; read-out: IC50 of HDAC4 inhibitory activity, Table 1, Boc-Lys(TFA)-AMC 10 μM substrate) [µM] | Compound | HDAC4 inhibitory activity in initial screen compared to SAHA [3]
> 40 | 23.4 | moderate compared to SAHA | 24.7 | 0.58 | > 40 | – | CC(Cc1ccc(O)c(O)c1)C(C)Cc1ccc(O)c(O)c1 (centres unmarked) | significantly higher inhibitory activities
– | – | – | – | – | – | – | CN(Cc1cnc2nc(N)nc(N)c2n1)c1ccc(C(=O)NC(CCP(=O)(O)O)P(=O)(O)O)cc1 (centres unmarked) | significantly higher inhibitory activities
> 40 | 2.94 | – | 14.9 | 12.9 | > 40 | 14.9 | NC(Cc1cc(O)c(O)c(S(=O)(=O)c2ccccc2)c1)C(=O)O (centres unmarked) | significantly higher inhibitory activities

Compound | IC50 [1] [µM] | IC50 [2] [µM] | HDAC4 inhibitory activity compared to SAHA (in words) ([3]; IC50 determination) | IC50 [3, 6] [µM] | IC50 [4] [µM] | IC50 [5] [µM] | IC50 ([3]; read-out: IC50 of HDAC4 inhibitory activity, Table 1, Boc-Lys(TFA)-AMC 10 μM substrate) [µM] | HDAC4 inhibitory activity in initial screen compared to SAHA [3]
Cc1cc2c(C(C)C)c(O)c(O)cc2c(O)c1-c1c(C)cc2c(C(C)C)c(O)c(O)cc2c1O | > 40 | – | – | 4.47 | 7.14 | > 40 | – | significantly higher inhibitory activities
